# From US20210188930A1 (priority 2018, published 2021)
# System: NCI60 cell lines
# Assay: NCI60 cell panel sensitivity profile (retrieved by CellMiner)
# Assay type: cell-based, human
# Settings: Struc. / WT / Null / Others
substance,measurement,value
potassium arsenite,"selectivity among NCI60 cell lines by p53 status (G150), in words",selectively inhibit structural hotspot mp53s expressing NCI60 cell lines
